Consider 1 substance from publication PMC6825215, “An anionic, endosome-escaping polymer to potentiate intracellular delivery of cationic peptides, biomacromolecules, and nanoparticles” (Nature Communications, 2019).

In this data set the test system is HCAVSMCs.

For poly(propylacrylic acid) [PPAA], the “polymer cleared from cells within 5 days” value is listed as ~ 90%.
